Screens (PubChem BioAssay)
Yeast UUG start – alters start codon recognition fidelity in yeast; AID 602363; activity score, % at 18.7 µM; 350,000 tested, 0.13% active; S. cerevisiae UUG-firefly luciferase reporter, luminescence/redox ratio;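 active means replicate mean at a twofold rise or more, about +100% in these data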;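 further: firefly luciferase made from a UUG start codon reports start codon fidelity; reporter light over untreated wells divided by growth signal over untreated wells; some hits fall short of that in this replicate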
esBAF inh – SWI/SNF esBAF complex inhibition; 350,000 tested, 2% active; mouse ES cells, Bmi1-luciferase knock-in reporter, 24 h; 100% = twice the neutral-well signal; reporter increase, % at 12.5 µM; in the data active = activation above about 40%; inconclusive = no clear call, values can overlap the other calls;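 also: 0% = median of the plate's neutral control wells and 100% = double that signal; a rise in the Bmi1 reporter signal indicates esBAF inhibition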
miR122 inh – miR-122 inhibition in Huh7 cells | Huh7 miR-122 Renilla luciferase sensor, 48 h; neutral wells = 0, positive control = 100 | activation (reporter increase), % at 12.5 µM | 340,000 tested, 0.3% active;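 active = mean replicate activation score at least 90 and every replicate individually at or above 90; inconclusive = only one of the two criteria met; inactive = neither criterion met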;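 also: higher luciferase means less miR-122 activity so hits act as miR-122 inhibitors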
PglD DTNB – inhibitors of Campylobacter jejuni PglD acetyltransferase; 360,000 tested, 0.098% active; purified PglD enzyme, DTNB colorimetric CoA detection; inhibition, % at 12.5 µM; AID 602405; in the data active = inhibition above about 16%, passing the limit was not always enough; inconclusive = no clear call, values can overlap the other calls
MITF act – increases MITF-driven TRPM1 promoter luciferase signal; AID 588334; 300,000 tested, 0.75% active; activation, % at 12.5 µM; SK-MEL-5 TRPM1-promoter luciferase, 24 h; % of positive control, neutral wells = 0;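 active = mean activation of at least 80% with every replicate also reaching 80%; inconclusive = mean reaches 80% but some replicate falls short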;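 also: 0% = neutral control wells and 100% = parthenolide positive control wells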
Wnt bcat act – activates Wnt/beta-catenin signaling in a reporter cell assay; activator, plate reader; activation, % at 9.35 µM; 300,000 tested, 1.2% active; AID 743398; in the data active = activation above about 30%, passing the limit was not always enough; inconclusive = no clear call, values can overlap the other calls;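 also: 0% = neutral control wells and 100% = positive control wells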
An asterisk follows results filed as active; [ ] = remark or other dose. Only some compounds are listed: those with a hit (about 2.8% of all), similar ones and a draw of the others.

A first look, 3 compounds:
What do the screens show for `O=C(c1ccc2c3n(nc2c1)-c1ccccc1CO3)N1CCOCC1`?
Yeast UUG start: -43; esBAF inh: -75; miR122 inh: -9; PglD DTNB: 1; MITF act: 49

Results for CCN(CC)CCCNC(=O)c1ccc2c3n(nc2c1)-c1ccc(Cl)cc1CO3 ?
Yeast UUG start: -7; esBAF inh: 37; miR122 inh: -4; PglD DTNB: 0; MITF act: 114*; Wnt bcat act: 18

How did CC(C)NC(=O)c1ccc2c3n(nc2c1)-c1ccc(Cl)cc1CO3 do in these assays?
Yeast UUG start: -14; esBAF inh: 75*; miR122 inh: -15; PglD DTNB: -6; MITF act: 102*; Wnt bcat act: 34*

Main list, repeating the preview:
What do the screens show for `O=C(c1ccc2c3n(nc2c1)-c1ccccc1CO3)N1CCOCC1`?
Yeast UUG start: -43; esBAF inh: -75; miR122 inh: -9; PglD DTNB: 1; MITF act: 49

Results for CCN(CC)CCCNC(=O)c1ccc2c3n(nc2c1)-c1ccc(Cl)cc1CO3 ?
Yeast UUG start: -7; esBAF inh: 37; miR122 inh: -4; PglD DTNB: 0; MITF act: 114*; Wnt bcat act: 18

How did CC(C)NC(=O)c1ccc2c3n(nc2c1)-c1ccc(Cl)cc1CO3 do in these assays?
Yeast UUG start: -14; esBAF inh: 75*; miR122 inh: -15; PglD DTNB: -6; MITF act: 102*; Wnt bcat act: 34*

How did CCCCn1nc2cc(C(=O)N[C@H](C)C3CCCCC3)ccc2c1OCC do in these assays?
Yeast UUG start: -6; esBAF inh: 14; miR122 inh: 2; PglD DTNB: -4; MITF act: 3; Wnt bcat act: -7

How did O=C(c1ccc2c3n(nc2c1)-c1ccc(Cl)cc1CO3)N1CCOCC1 do in these assays?
Yeast UUG start: -19; esBAF inh: 73*; miR122 inh: -2; PglD DTNB: 6; MITF act: 126*; Wnt bcat act: 33*

What do the screens show for `O=C(NCc1ccncn1)[C@@H]1[C@@H](CO)[C@@H]2Cn3c(ccc(-c4cccc(F)c4)c3=O)[C@@H]2N1CC1CC1`?
esBAF inh: -2; miR122 inh: 1[16.7 µM]; PglD DTNB: 2

What do the screens show for `CCCNC(=O)N(C)C[C@@H]1Oc2ncc(-c3ccc(OC)cc3)cc2C(=O)N([C@@H](C)CO)C[C@@H]1C`?
Yeast UUG start: -1; esBAF inh: 5; miR122 inh: 1[16.7 µM]; PglD DTNB: -3

Results for COc1ccc(-c2ccc3c(=O)cc(-c4ccsc4)oc3c2)cn1 ?
Yeast UUG start: -14; esBAF inh: 7; miR122 inh: -1; PglD DTNB: 3; MITF act: 33; Wnt bcat act: -2

What do the screens show for `COc1ccc(-c2ccc3c(c2)O/C(=C\c2ccsc2)C3=O)cn1`?
Yeast UUG start: -6; esBAF inh: 45*; miR122 inh: -3; PglD DTNB: -14; MITF act: 73; Wnt bcat act: 11

How did CCn1nnc(NC(=O)c2cc3ccccc3o2)n1 do in these assays?
Yeast UUG start: -21; esBAF inh: 16; miR122 inh: -1; PglD DTNB: 1; MITF act: 64

How did CCCn1nnc(NC(=O)c2cc3ccccc3o2)n1 do in these assays?
Yeast UUG start: -22; esBAF inh: 50*; miR122 inh: -3; PglD DTNB: 2; MITF act: 71; Wnt bcat act: 12

Results for CCCCn1nnc(NC(=O)c2ccc(-c3cccc(Cl)c3)o2)n1 ?
Yeast UUG start: 17; esBAF inh: 10; miR122 inh: 4; PglD DTNB: 0; MITF act: 32

What do the screens show for `CCCCn1nnc(NC(=O)c2cc3ccccc3o2)n1`?
Yeast UUG start: -21; esBAF inh: 59*; miR122 inh: 0; PglD DTNB: -3; MITF act: inconclusive

Results for CCCC#Cc1cnc2c(c1)C(=O)N([C@@H](C)CO)C[C@@H](C)[C@H](CN(C)C(=O)NCCC)O2 ?
Yeast UUG start: 4; esBAF inh: -1; miR122 inh: 8[16.7 µM]; PglD DTNB: -2

What do the screens show for `COc1ccc(NC(=O)Nc2ccc3c(c2)[C@H]2C[C@@H](CC(=O)NCc4ccccc4F)O[C@@H](CO)[C@H]2O3)cc1`?
Yeast UUG start: -9; esBAF inh: -1; miR122 inh: -1[16.7 µM]; PglD DTNB: -1

What do the screens show for `COc1cc(C)ccc1OCC(=O)NC1CCCCCC1`?
Yeast UUG start: -2; esBAF inh: 69*; miR122 inh: -4; PglD DTNB: 0; MITF act: inconclusive; Wnt bcat act: -1

How did COc1cc(CNn2cnnc2)ccc1OCC(=O)NC1CCCCC1 do in these assays?
Yeast UUG start: -17; esBAF inh: -12; miR122 inh: -3; PglD DTNB: 3; MITF act: 5; Wnt bcat act: -2

What do the screens show for `O=C(COc1ccc(Cl)cc1Br)NC1CC1`?
Yeast UUG start: -21; esBAF inh: 38; miR122 inh: -6; PglD DTNB: -3; MITF act: 50; Wnt bcat act: 16

How did O=C(COc1ccc(Cl)cc1[N+](=O)[O-])NC1CCCCC1 do in these assays?
esBAF inh: 101*; miR122 inh: -7; MITF act: 62; Wnt bcat act: 0

What do the screens show for `CC(=O)c1cc(Cl)ccc1OCC(=O)NC1CCCC1`?
esBAF inh: 52*; MITF act: 50; Wnt bcat act: -3

How did O=C(COc1ccc(Cl)cc1[N+](=O)[O-])N1CCCCCC1 do in these assays?
Yeast UUG start: -1; esBAF inh: -1; miR122 inh: 8; PglD DTNB: -2; MITF act: 2; Wnt bcat act: -1

How did C[C@@H]1CN([C@@H](C)CO)C(=O)c2cc(-c3ccncc3)cnc2O[C@@H]1CN(C)C(=O)c1ccc(F)cc1 do in these assays?
Yeast UUG start: 46; esBAF inh: -15; miR122 inh: 16[16.7 µM]; PglD DTNB: 2

How did Cc1cc(/C=C(\C#N)C(=O)NCc2ccco2)c(C)n1C1CCCC1 do in these assays?
Yeast UUG start: 2; esBAF inh: 53*; miR122 inh: 23; PglD DTNB: 0; MITF act: 58; Wnt bcat act: 39*

What do the screens show for `N#C/C(=C\c1ccc(OCc2cccc(C(=O)O)c2)cc1)C(=O)NCc1ccco1`?
MITF act: 11; Wnt bcat act: 39*

Results for Cc1cc(/C=C(\C#N)C(=O)NCc2ccco2)c(C)n1-c1cccnc1 ?
MITF act: 37; Wnt bcat act: -2

What do the screens show for `Cc1ccc(NC(=O)CSc2nc(O)c(Cc3ccccc3)c(=O)n2-c2ccccc2)cc1`?
Yeast UUG start: 1; esBAF inh: 25*; PglD DTNB: -2; MITF act: 5; Wnt bcat act: -1

Results for O=C(C[C@@H]1CC[C@H](NC(=O)Nc2ccc(F)cc2)[C@H](CO)O1)NCCN1CCCC1 ?
Yeast UUG start: -23; esBAF inh: -3; PglD DTNB: 2

What do the screens show for `Cc1nc(-c2ccc(Cl)cc2)sc1C1(C)CC(c2cccc(F)c2)=NO1` (stereo unspecified)?
Yeast UUG start: -13; esBAF inh: 46*; miR122 inh: -8; PglD DTNB: 1; MITF act: 48; Wnt bcat act: 7

What do the screens show for `Cc1nc(-c2ccc(Cl)cc2)sc1C1(C)CC(c2cccc(Cl)c2)=NO1` (stereo unspecified)?
Yeast UUG start: -8; esBAF inh: 21; miR122 inh: -1; PglD DTNB: 2; MITF act: 39; Wnt bcat act: 11

Results for Cc1ccc(-c2nc3ccccc3n2C)o1 ?
Yeast UUG start: -19; miR122 inh: 3; PglD DTNB: -4; MITF act: 32
